# CycPeptMPDB entries from one study

Source: CycPeptMPDB (Li et al. 2023), which took these values from Townsend et al. 2020, doi:10.26434/chemrxiv.13335941.v1.

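Lipid, pH, incubation time, direction and concentration are not recorded in the data file. Other peptides of the study may be missing here. Entries at the database's floor value (log10 P of -10) are not listed.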

PAMPA measures passive passage through an artificial lipid membrane.
P is given in units of 10^-6 cm/s (from log10 values with two decimals); larger means faster passage.

PAMPA (10^-6 cm/s) | structure (SMILES)
4.9 | CC(C)C[C@@H]1C(=O)N(C)[C@H](CC(C)C)C(=O)N2CCC[C@H]2C(=O)N[C@H](CC(C)C)C(=O)N[C@@H](Cc2ccccc2)C(=O)N2CCC[C@H]2C(=O)N[C@@H](Cc2ccccc2)CC(=O)N1C
3 | CC(C)C[C@@H]1NC(=O)CN(Cc2ccccc2)C(=O)[C@@H](C)NC(=O)[C@H]2CCCN2C(=O)[C@H](Cc2ccccc2)NC(=O)[C@H](CC(C)C)N(C)C(=O)[C@H]2CCCN2C1=O
8.3 | CCCN1CC(=O)N[C@H](CC(C)C)C(=O)N(C)[C@@H](CC(C)C)C(=O)N2CCC[C@H]2C(=O)N(Cc2ccccc2)CC(=O)N[C@@H](Cc2ccccc2)C1=O
2.2 | C[C@H]1NC(=O)[C@H](Cc2ccccc2)NC(=O)CN(Cc2ccccc2)C(=O)[C@@H]2CCCN2C(=O)C[C@H](Cc2ccccc2)NC(=O)CN(Cc2ccccc2)C1=O
5.2 | CCCN1CC(=O)N(C)[C@@H](CC(C)C)C(=O)N[C@@H](Cc2ccccc2)CC(=O)N2CCC[C@@H]2C(=O)N(C)[C@@H](CC(C)C)C(=O)N[C@@H](Cc2ccccc2)C1=O
0.19 | CC(C)C[C@@H]1NC(=O)[C@@H]2CCCN2C(=O)CN(Cc2ccccc2)C(=O)CN(Cc2ccccc2)C(=O)[C@@H](C)NC(=O)[C@H]2CCCN2C(=O)[C@H](Cc2ccccc2)NC1=O
1.1 | CCCN1CC(=O)N[C@@H](CC(C)C)C(=O)N[C@@H](Cc2ccccc2)CC(=O)N2CCC[C@H]2C(=O)N(Cc2ccccc2)CC(=O)N[C@@H](Cc2ccccc2)C(=O)N2CCC[C@H]2C1=O
2.3 | CC(C)C[C@@H]1C(=O)N(Cc2ccccc2)CC(=O)N2CCC[C@@H]2C(=O)N[C@H](CC(C)C)C(=O)N[C@@H](Cc2ccccc2)C(=O)N[C@@H](Cc2ccccc2)CC(=O)N1C
0.78 | CCCN1CC(=O)N[C@H](CC(C)C)C(=O)N[C@@H](Cc2ccccc2)CC(=O)N2CCC[C@@H]2C(=O)N[C@@H](CC(C)C)C(=O)N[C@@H](Cc2ccccc2)C1=O
5.2 | CC(C)C[C@H]1C(=O)N[C@@H](Cc2ccccc2)C(=O)N(C)[C@@H](C)C(=O)N(Cc2ccccc2)CC(=O)N[C@@H](Cc2ccccc2)CC(=O)N2CCC[C@H]2C(=O)N1C
0.71 | CC(C)C[C@H]1NC(=O)C[C@H](Cc2ccccc2)NC(=O)[C@H]2CCCN2C(=O)[C@H](Cc2ccccc2)NC(=O)CN(Cc2ccccc2)C(=O)[C@H]2CCCN2C(=O)CN(Cc2ccccc2)C1=O
0.69 | CC(C)C[C@H]1NC(=O)[C@@H]2CCCN2C(=O)CN(Cc2ccccc2)C(=O)CN(Cc2ccccc2)C(=O)[C@@H](C)NC(=O)[C@@H]2CCCN2C(=O)[C@H](Cc2ccccc2)NC1=O
1.3 | CC(C)C[C@@H]1NC(=O)[C@@H]2CCCN2C(=O)C[C@H](Cc2ccccc2)NC(=O)CN(Cc2ccccc2)C(=O)[C@@H](C)N(C)C(=O)[C@H](Cc2ccccc2)NC1=O
1.1 | CCCN1CC(=O)N(Cc2ccccc2)CC(=O)N[C@@H](Cc2ccccc2)CC(=O)N2CCC[C@H]2C(=O)N[C@H](CC(C)C)C(=O)N[C@@H](Cc2ccccc2)C(=O)N2CCC[C@H]2C1=O
0.63 | CC(C)C[C@H]1NC(=O)C[C@H](Cc2ccccc2)NC(=O)[C@H](Cc2ccccc2)NC(=O)CN(Cc2ccccc2)C(=O)[C@@H]2CCCN2C(=O)C[C@H](Cc2ccccc2)NC1=O
9.8 | CCCN1CC(=O)N[C@@H](CC(C)C)C(=O)N(C)[C@@H](CC(C)C)C(=O)N2CCC[C@@H]2C(=O)N(C)[C@@H](CC(C)C)C(=O)N[C@@H](Cc2ccccc2)C1=O
1 | CCCN1CC(=O)N(C)[C@@H](CC(C)C)C(=O)N(Cc2ccccc2)CC(=O)N2CCC[C@@H]2C(=O)N(Cc2ccccc2)CC(=O)N[C@@H](Cc2ccccc2)C(=O)N2CCC[C@@H]2C1=O
0.22 | O=C1CN(Cc2ccccc2)C(=O)[C@H]2CCCN2C(=O)CN(Cc2ccccc2)C(=O)CN(Cc2ccccc2)C(=O)C[C@H](Cc2ccccc2)NC(=O)[C@H]2CCCN2C(=O)[C@H](Cc2ccccc2)N1

The last 2 entries again:

structure (SMILES)	PAMPA (10^-6 cm/s)
CCCN1CC(=O)N(C)[C@@H](CC(C)C)C(=O)N(Cc2ccccc2)CC(=O)N2CCC[C@@H]2C(=O)N(Cc2ccccc2)CC(=O)N[C@@H](Cc2ccccc2)C(=O)N2CCC[C@@H]2C1=O	1
O=C1CN(Cc2ccccc2)C(=O)[C@H]2CCCN2C(=O)CN(Cc2ccccc2)C(=O)CN(Cc2ccccc2)C(=O)C[C@H](Cc2ccccc2)NC(=O)[C@H]2CCCN2C(=O)[C@H](Cc2ccccc2)N1	0.22